Results taken from PubChem BioAssay AID624465 (National Center for Advancing Translational Sciences (NCATS), 2012).
The entries are a selection whose mix differs from that of the whole data set. Calls of active or inactive are those of the source. No stated cut-off is given here; in the data, active means activation above about 40%; inconclusive means between about 15% and that limit; inactive means weaker than that.

By UniProt entry, the sequences of proteins in these tests, tags left out.
UniProt P14416, whole entry: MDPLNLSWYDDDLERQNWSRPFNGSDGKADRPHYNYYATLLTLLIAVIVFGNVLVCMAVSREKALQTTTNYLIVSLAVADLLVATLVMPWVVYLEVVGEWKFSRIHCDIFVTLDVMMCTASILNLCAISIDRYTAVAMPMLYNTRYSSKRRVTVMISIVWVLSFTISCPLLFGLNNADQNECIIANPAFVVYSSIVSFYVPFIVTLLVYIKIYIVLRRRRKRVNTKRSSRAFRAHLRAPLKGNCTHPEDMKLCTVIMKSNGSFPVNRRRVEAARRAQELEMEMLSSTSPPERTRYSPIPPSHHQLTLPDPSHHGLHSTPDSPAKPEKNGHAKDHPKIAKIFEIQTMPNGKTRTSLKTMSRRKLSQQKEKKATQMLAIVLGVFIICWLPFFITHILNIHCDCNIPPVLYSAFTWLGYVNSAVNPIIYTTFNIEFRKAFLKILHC

Molecular target: D(2) dopamine receptor (Homo sapiens) (UniProt P14416)
Test: Beta-Arrestin HTS for Positive Allosteric Modulators of the Human D2 Dopamine Receptor: Agonists
Details: DiscoveRx PathHunter D2 beta-arrestin, luminescence, 90 min; hits give high values; 100% = 57 uM dopamine signal
Source text: There is great interest in identifying small molecule ligands for G-protein coupled receptors (GPCRs) as nearly 50% of all FDA-approved drugs target these important receptor proteins. […] Amongst the dopamine receptors (DARs), the D2 is arguably one of the most validated drug targets in neurology and psychiatry. For instance, all receptor-based antiparkinsonian drugs primarily work via stimulating the D2 DAR, whereas all FDA-approved antipsychotic agents are antagonists of this receptor. The D2 DAR is also therapeutically targeted in other disorders such as restless legs syndrome, tardive dyskinesia, Tourette's syndrome, and hyperprolactinemia.
To this end, a miniaturized qHTS screen was developed to be screened against the Molecular Libraries Small Molecule Repository (MLSMR). This assay seeks to identify agonists against the D2 DAR.
NIH Molecular Libraries Probe Production Network [MLPCN]
NIH Chemical Genomics Center [NCGC]
PI Name: David Sibley, National Institutes of Neurological Disorders and Stroke
DiscoveRx D2 cells were thawed from frozen stock and seeded at 2,100 cells/ 3 uL/well media (DiscoveRx Plating Reagent 2) with MultiDrop Combi dispenser (Thermo Scientific, Logan, UT) onto white tissue culture treated 1536-well Aurora plates (Brooks Automation, Chelmsford, MA) and allowed to attach overnight at 37 deg C, 5% CO2. Next, 23 nL/well of compound solutions in DMSO were added with a pintool transfer (Kalypsis, San Diego, CA). As the positive control, 1 uL/well dopamine (EC100, 57 uM final concentration) diluted in buffer (HBSS + 10 mM HEPES + SMB + 0.1% Tween-20) was dispensed to 1 column of each plate. The rest of the plate was dispensed with buffer only, 1 uL/well as well. The cells were stimulated by compounds or dopamine control for 90 minutes at 37 deg C, 5% CO2, after which 1.5 ul/well of DiscoveRx detection reagent was added with BioRAPTR FRD dispenser. The detection reagent was prepared by mixing of Galacton Star Substrate, Emerald II solution and PathHunter buffer (supplied by the assay kit) together at 1:5:19 proportion accordingly just prior to dispensing. The plates were incubated at ambient temperature for 1 hour and then the luminescent signal was read on ViewLux plate reader (PerkinElmer, Waltham, MA).

| SMILES | activation |
| --- | --- |
| CP(=O)(Nc1ccc(SC(F)(F)F)cc1)Oc1ccc(F)cc1 (stereo unspecified) | inactive: -3.74% |
| O=P(Nc1nccs1)(c1ccccc1)c1ccccc1 | inactive: 0.798% |
| CC(C)C(=O)NC(Sc1ccccc1)C(Cl)(Cl)Cl (stereo unspecified) | inactive: -2.29% |
| CCOP(C)(=S)SCC(=O)NC(C)(CC)C(=O)O (stereo unspecified) | inactive: -2.48% |
| c1nnnn1CCn1cnnn1 | inactive: -1.42% |
| CP(=O)(Nc1ccc2c(c1)OCCO2)Oc1ccccc1 (stereo unspecified) | inactive: -3.5% |
| Cc1ccccc1NP(C)(=O)Nc1ccccc1C | inactive: -1.32% |
| COc1ccc(N)c([N+](=O)[O-])c1[N+](=O)[O-] | inactive: 0.641% |
| COc1ccc(OP(C)(=O)Nc2cccc(Br)c2)cc1 (stereo unspecified) | inactive: -4.67% |
| CN(C)C1(CNC(=O)c2ccc(Cl)c(S(N)(=O)=O)c2)CCCCC1 | inactive: -0.706% |
| O=P(Nc1ccccn1)(c1ccc(Br)cc1)c1ccc(Br)cc1 | inactive: 3.22% |
| C[C@H]1OP(=O)(Oc2ccccc2)[C@H](O)[C@H](O)[C@H]1N=[N+]=[N-] (stereo partly specified) | inactive: -1.85% |
| O=P(Nc1nc2ccccc2s1)(c1ccccc1)c1ccccc1 | inactive: 2.21% |
| CN(C)CCOC(=O)C(O)(c1ccccc1)C1CCCCC1 (stereo unspecified) | inactive: -1.07% |
| COc1ccc(NP(C)(=O)Oc2ccccc2OC)cc1 (stereo unspecified) | inactive: -3.19% |
| O=[N+]([O-])c1ccc(OP2(=O)COCCO2)cc1 (stereo unspecified) | inactive: -7.83% |
| CC(=O)NC(SC(=S)N(C)C)C(Cl)(Cl)Cl (stereo unspecified) | inactive: -2.68% |
| O=[N+]([O-])c1ncn(CCn2cnc([N+](=O)[O-])n2)n1 | inactive: -0.437% |
| O=[N+]([O-])c1ccc(O)c(/C=N/Nc2ccc([N+](=O)[O-])cc2[N+](=O)[O-])c1 | inactive: 11.4% |
| Cc1cc(-c2cccc3ccccc23)c(C)cn1.O=[N+]([O-])c1cc([N+](=O)[O-])c(O)c([N+](=O)[O-])c1 | inactive: -6.98% |
| O=[As](O)(c1ccccc1)c1ccc(O)cc1 | inactive: -1.84% |

| SMILES | activation |
| --- | --- |
| Nc1ccc([As](=O)(O)c2ccc([N+](=O)[O-])cc2)cc1 | inactive: 1.63% |
| C(Cc1nn[nH]n1)Cc1nn[nH]n1 | inactive: 1.67% |
| Cc1c(C(c2ccc3c(c2)OCO3)c2c(C)n(C)n(-c3ccccc3)c2=O)c(=O)n(-c2ccccc2)n1C.O=[N+]([O-])c1cc([N+](=O)[O-])c(O)c([N+](=O)[O-])c1 | inactive: -0.189% |
| O=C(OC1CN2CCC1CC2)c1cccc(Cl)c1 (stereo unspecified) | inactive: -4.07% |
| O=C(NC1CCS(=O)(=O)C1)NP(=S)(Oc1ccccc1)Oc1ccccc1 (stereo unspecified) | inactive: 0.526% |
| CCNC(=S)/N=C(\N)N[N+](=O)[O-] | inactive: -3.67% |
| Cc1ccc(NP(=O)(Oc2cccc(C)c2)Oc2cccc(C)c2)nc1 | inactive: 0.794% |
| c1ccc(-c2nn[nH]n2)c(-c2nn[nH]n2)c1 | inactive: -4.29% |
| CCOC(=O)c1ccc(NP(C)(=O)Oc2ccc(F)cc2)cc1 (stereo unspecified) | inactive: 0.267% |
| O=P1(N(CCCl)CCCl)OCCC2CCCCN21 (stereo unspecified) | inactive: -2.7% |
| COc1ccc(OP(C)(=O)Nc2ccc(SC(F)(F)F)cc2)cc1 (stereo unspecified) | inactive: 2.64% |
| CC(=O)NC(SC(=S)N(CC(C)C)CC(C)C)C(Cl)(Cl)Cl (stereo unspecified) | inactive: -2.65% |
| Cc1ccc(OP(=O)(Nc2ccccn2)Oc2ccc(C)cc2)cc1 | inactive: 8.54% |
| COC(=O)c1cc2c(s1)N=C(c1ccccc1)N(C)P2(=O)N1CCOCC1 (stereo unspecified) | inactive: -0.913% |
| Cc1c([N+](=O)[O-])cc([N+](=O)[O-])c(Br)c1[N+](=O)[O-] | inactive: -4.01% |
| CCC(=O)N1C2C3N(C(=O)CC)C1C1N(C(=O)CC)C(C(N1C(=O)CC)N3C(=O)CC)N2C(=O)CC | inactive: -1.55% |
| CCN(CC)CCCOC(=O)C(O)(c1ccccc1)C1CCCCC1 (stereo unspecified) | inactive: -3.92% |
| O=C(OC1CN2CCC1CC2)c1ccccc1 (stereo unspecified) | inactive: -4.61% |
| CP(=O)(Nc1ccccc1)Oc1ccc(F)cc1 (stereo unspecified) | inactive: -4.07% |
| CN(C)C(=O)Oc1noc2ccccc12 | inactive: -2.59% |
| CCCCCOc1ccc(NP(C)(=O)Oc2ccc(Cl)cc2Cl)cc1 (stereo unspecified) | inactive: -3.19% |

| SMILES | activation |
| --- | --- |
| O=c1c2cc([N+](=O)[O-])ccc2[nH]c2c([N+](=O)[O-])cc([N+](=O)[O-])cc12 | inactive: -5.17% |
| Cc1ccccc1OP(=O)(Nc1ccccn1)Oc1ccccc1C | inactive: 0.732% |
| CC(NC(=O)COC(=O)C(O)(c1ccccc1)c1ccccc1)c1ccccc1 (stereo unspecified) | inactive: 0.352% |
| CCOc1ccc(C2=NCC(CBr)S2)cc1 (stereo unspecified) | inactive: -6.69% |
| O=P1(Nc2nc3ccc(Cl)cc3s2)COc2ccccc2O1 (stereo unspecified) | inactive: -2.28% |
| CP(=O)(Nc1ccccc1F)Oc1ccccc1 (stereo unspecified) | inactive: -1.96% |
| CCc1cc(O)c([N+](=O)[O-])c(C)c1[N+](=O)[O-] | inactive: -0.72% |
| CC(C)c1ccc(OP(C)(=O)Nc2ccc(SC(F)(F)F)cc2)cc1 (stereo unspecified) | inactive: -0.46% |
| CC(C)(C)C(=O)NC(Sc1ccccc1)C(Cl)(Cl)Cl (stereo unspecified) | inactive: 0.545% |
| COC(=O)C1(C)COP(=O)(NCc2ccccc2)OC1 (stereo unspecified) | inactive: -0.939% |
| N#C/C(=C\c1ccc(N(CCBr)CCBr)cc1)C(N)=O | inactive: -4.23% |
| CC(=O)c1ccc(N2CC2c2ccncc2)cc1 (stereo unspecified) | inactive: -1.3% |
| C[C@@H]1C=CCP(=O)(Oc2ccccc2)O1 (stereo partly specified) | inactive: -1.91% |
| C[C@H]1OP(=O)(Oc2ccccc2)C[C@@H]2O[C@@H]21 (stereo partly specified) | inactive: -3.42% |
| O=C(OCCN1CCN(CCOCc2ccccc2)CC1)C(O)(c1ccccc1)c1ccccc1 | inactive: -0.62% |
| Cc1ccccc1CN(C)C(=O)COC(=O)C(O)(c1ccccc1)c1ccccc1 | inactive: 1.44% |
| CC(=O)Nc1ccc(Oc2c([N+](=O)[O-])cc([N+](=O)[O-])cc2[N+](=O)[O-])cc1 | inactive: -9.13% |
| CC(=O)Nc1ccc([As](=O)(O)O)c(O)c1 | inactive: -0.353% |
| Cc1ccc(N/C(=N/P(=O)(N2CCOCC2)N2CCOCC2)N2CCOCC2)cc1 | inactive: -4.05% |
